Test results as given in patent US7709613B2, “Rhenium-188 and rhenium-186 for treatment of tumors expressing a Na+/I− symporter” (priority 2002, dated 2010).
Where two headings read alike, the source gives them in different places.

System: NIS-expressing xenografted mammary adenocarcinoma (NAFA cells)
Format: in vivo, nude mice
Protocol: Animal model. […] Since erbB-2 (Neu) is one of the better known human breast cancer oncogenes, a mammary tumor cell line (NAFA) induced by oncogenic Neu was used. The NAFA cell line derived from the MMTV-NeuT mouse was grown in DMEM with 10% fetal bovine serum and 1% penicillin-streptomycin. […] Female nude mice (Charles River Laboratories) 4-6 weeks old were injected SC with 10^6 NAFA cells into the left groin.
Biodistribution. […] In order to block mg-NIS in expressing organs and tumor, control animals were injected with the above mixture of isotopes combined with 2 mg NaClO4. […] The % ID/g for each organ was determined, and RIs (% ID/g in the tumor divided by the % ID/g in normal tissue) were calculated.

## [I-].[Na+] [^125I^−, sodium iodide]
20 min, blood
  Tumor to normal organ ratio (RI): 0.57
20 min, kidneys
  Tumor to normal organ ratio (RI): 1.29
20 min, liver
  Tumor to normal organ ratio (RI): 1.68
20 min, muscle
  Tumor to normal organ ratio (RI): 13.39
20 min, salivary glands
  Tumor to normal organ ratio (RI): 2.20
20 min, spleen
  Tumor to normal organ ratio (RI): 1.60
20 min, stomach
  Tumor to normal organ ratio (RI): 0.11
20 min, thyroid
  Tumor to normal organ ratio (RI): 0.60
20 min, tumor
  Tumor to normal organ ratio (RI): 1.00
2 hr, blood
  Tumor to normal organ ratio (RI): 0.68
2 hr, kidneys
  Tumor to normal organ ratio (RI): 1.50
2 hr, liver
  Tumor to normal organ ratio (RI): 2.04
2 hr, muscle
  Tumor to normal organ ratio (RI): 12.17
2 hr, salivary glands
  Tumor to normal organ ratio (RI): 1.21
2 hr, spleen
  Tumor to normal organ ratio (RI): 2.62
2 hr, stomach
  Tumor to normal organ ratio (RI): 0.11
2 hr, thyroid
  Tumor to normal organ ratio (RI): 0.13
2 hr, tumor
  Tumor to normal organ ratio (RI): 1.00
24 hr, blood
  Tumor to normal organ ratio (RI): 1.67
24 hr, kidneys
  Tumor to normal organ ratio (RI): 2.77
24 hr, muscle
  Tumor to normal organ ratio (RI): 6.25
24 hr, salivary glands
  Tumor to normal organ ratio (RI): 2.50
24 hr, spleen
  Tumor to normal organ ratio (RI): 2.50
24 hr, stomach
  Tumor to normal organ ratio (RI): 0.19
24 hr, thyroid
  Tumor to normal organ ratio (RI): 0.01
24 hr, tumor
  Tumor to normal organ ratio (RI): 1.00
